# Reference: PMC13600255 (Journal of the American Chemical Society, 2025)
# Protein sequences, listed by entry. Tags and fused reporters are not part of them.
# UniProt P31652, whole entry: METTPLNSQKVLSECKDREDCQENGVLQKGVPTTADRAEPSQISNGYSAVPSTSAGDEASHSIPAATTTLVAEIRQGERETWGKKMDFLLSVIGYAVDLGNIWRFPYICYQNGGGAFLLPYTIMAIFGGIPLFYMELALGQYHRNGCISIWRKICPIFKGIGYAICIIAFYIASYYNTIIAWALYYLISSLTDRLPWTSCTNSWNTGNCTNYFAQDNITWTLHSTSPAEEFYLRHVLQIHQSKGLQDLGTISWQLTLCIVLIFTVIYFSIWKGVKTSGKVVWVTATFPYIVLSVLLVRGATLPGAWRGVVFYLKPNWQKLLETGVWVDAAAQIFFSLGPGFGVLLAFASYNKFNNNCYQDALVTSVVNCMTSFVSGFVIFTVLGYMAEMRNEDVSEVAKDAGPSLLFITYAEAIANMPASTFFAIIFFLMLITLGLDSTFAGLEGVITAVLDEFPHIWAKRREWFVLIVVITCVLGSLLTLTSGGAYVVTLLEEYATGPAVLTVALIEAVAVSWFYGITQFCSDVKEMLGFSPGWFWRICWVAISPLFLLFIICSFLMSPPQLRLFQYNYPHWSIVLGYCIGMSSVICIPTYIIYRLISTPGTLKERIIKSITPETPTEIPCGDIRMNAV
# Target: rat SERT (rSERT) (Rattus norvegicus, UniProt P31652)
# Test: [3H]5-HT uptake inhibition in rat brain synaptosomes
# Format: biochemical
structure (smiles),measurement,setting,value
"COC(=O)[C@H]1[C@@H](OC(=O)c2ccccc2)C[C@@H]2CC[C@H]1N2C [cocaine, reference compound]",IC50,"Uptake Inhibition at SERT IC50, [3H]5-HT (rSERT)",296 nM
same,IC50,"[3H]5-HT Uptake Inhibition IC50 ± SD, SERT, n = 3",296 ± 29.5 nM
